1 molecule from patent US20090172831A1, “Methods for the production of plants resistant to HPPD herbicides” (Syngenta Limited, priority 2000, published 2009) can be followed below.

In this assay the target is T1, Arabidopsis HPPD (Arabidopsis thaliana, UniProt P93836).
T1 construct: made in house; host or cells: E. coli BL21 (DE3) codon+ RP
T1 sequence (P93836 1-445): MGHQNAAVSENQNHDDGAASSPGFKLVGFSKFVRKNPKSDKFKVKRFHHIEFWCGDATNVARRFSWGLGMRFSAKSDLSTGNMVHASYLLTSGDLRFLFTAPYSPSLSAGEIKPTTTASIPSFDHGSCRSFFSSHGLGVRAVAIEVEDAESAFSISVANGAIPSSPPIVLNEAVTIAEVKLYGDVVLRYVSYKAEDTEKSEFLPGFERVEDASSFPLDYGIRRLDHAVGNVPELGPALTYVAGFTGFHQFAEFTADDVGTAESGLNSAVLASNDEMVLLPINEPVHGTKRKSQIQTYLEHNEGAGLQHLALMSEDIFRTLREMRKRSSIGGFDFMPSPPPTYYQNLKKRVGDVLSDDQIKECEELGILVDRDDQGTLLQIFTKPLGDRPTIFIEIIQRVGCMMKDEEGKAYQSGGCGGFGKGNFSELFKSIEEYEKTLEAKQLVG
Briefly: Dissociation of enzyme/inhibitor complexes by exchange with 14C-labelled inhibitor (koff; Kd = koff/kon). It is filed as binding. Here is the method: It will be appreciated that many suitable methods known in the art for determining such low koff values are suitable for working the current invention. These include measuring rates of exchange of radio or otherwise labelled inhibitors either with or away from the enzyme inhibitor complex. For example enzyme inhibitor complexes can readily be prepared by incubating HPPD preparations with labelled or unlabelled inhibitor and then, after suitable periods, optionally rapidly separating the thus formed enzyme inhibitor complex from excess inhibitor by any suitable method such as ultrafiltration, binding to filters or exchange down a gel filtration column. Exchange reactions with the, thus prepared enzyme inhibitor complex is then initiated by addition of, as appropriate, excess labelled or unlabelled inhibitor. […] Many methods such as radiometric, fluorimetric, NMR, fluorescence depolarisation, EPR, Mossbauer, UV/VIS spectrophotometry etc. or phonon resonance can, in principle, be used to monitor the enzyme/ligand exchange reactions and, particularly in this case where the enzyme contains an iron atom at the ligand binding site. Optionally, the monitoring method may be continuous (as, for example, with scintillation proximity/bead-based methods) or, discontinuous, based upon collection of data at various timepoints wherein samples are removed and the bound and unbound label components rapidly separated and quantitated.
Values of koff can suitably be calculated by computer fitting based upon is numerical integration of the exchange data along with information on the active-site concentration of HPPD and upon kon values obtained as described below. […] In any event, koff values are always here calculated from the rate of the major slow exchange reaction.
^14C mesotrione is of specific activity 1.12 GBq/mmol. […] Following this initial binding reaction, exchange reactions are initiated by addition of cold mesotrione to a final concentration of 60 μM and 200 μl aliquots removed at various times to rapid chromatography down a NAP5 gel filtration column equilibrated in 50 mM BTP at pH 7 containing 0.1 M KCl, separation into fractions containing protein-bound or free radiolabel and liquid scintillation counting.

As to `CS(=O)(=O)c1cc(C(F)(F)F)ccc1C(=O)C(C#N)C(=O)C1CC1` (centres unmarked) [Structure IV, 1-[2-(methanesulfonyl)-4-(trifluoromethyl)phenyl]-3-cyclopropyl-2-cyano-propane-1,3-dione], the Kd is 0.017 nM (value obtained + glycerol (in parentheses)) and 0.046 nM (without glycerol, Kd = koff/kon).
